This is an account of results in patent publication US7083777B1, “Immunomodulating polymers” (priority 1999, dated 2006).

This assay deals with B. fragilis. Briefly: Protection against abscess formation by recombinant cytokine given intracardially at challenge. It is filed as in vivo, rat.
Where [1] appears, read: 100 pg intracardiac at time of challenge, 10^8 cfu B. fragilis, Experiment A.

For IL-2: recombinant interleukin 2, the “Abscess formation (%)” value was 60% (10 pg, Experiment B); 27% under setting [1]; 12.5% (100 pg, Experiment B); 25% (1000 pg, Experiment B). For the same substance, the “No. animals with abscess/total” value (10 pg, Experiment B) is given as 6/10; the “No. animals with abscess/total” value under setting [1] is 10/37; the “No. animals with abscess/total” value (100 pg, Experiment B) is on record as 1/8; the “No. animals with abscess/total” value (1000 pg, Experiment B) is 2/8. For the same substance, where the note is “1000, 100 and 10 pg”, the “Protection against abscess formation (in words)” value was “dose-dependent manner”.
